This passage reports PF50 results from ChEMBL document CHEMBL4431370, “Novel tricyclic poly (ADP-ribose) polymerase-1/2 inhibitors with potent anticancer chemopotentiating activity: Design, synthesis and biological evaluation” (Bioorg Med Chem, 2016).

Chains of the proteins cited; added tags and fusions are not shown.
UniProt P09874, whole entry: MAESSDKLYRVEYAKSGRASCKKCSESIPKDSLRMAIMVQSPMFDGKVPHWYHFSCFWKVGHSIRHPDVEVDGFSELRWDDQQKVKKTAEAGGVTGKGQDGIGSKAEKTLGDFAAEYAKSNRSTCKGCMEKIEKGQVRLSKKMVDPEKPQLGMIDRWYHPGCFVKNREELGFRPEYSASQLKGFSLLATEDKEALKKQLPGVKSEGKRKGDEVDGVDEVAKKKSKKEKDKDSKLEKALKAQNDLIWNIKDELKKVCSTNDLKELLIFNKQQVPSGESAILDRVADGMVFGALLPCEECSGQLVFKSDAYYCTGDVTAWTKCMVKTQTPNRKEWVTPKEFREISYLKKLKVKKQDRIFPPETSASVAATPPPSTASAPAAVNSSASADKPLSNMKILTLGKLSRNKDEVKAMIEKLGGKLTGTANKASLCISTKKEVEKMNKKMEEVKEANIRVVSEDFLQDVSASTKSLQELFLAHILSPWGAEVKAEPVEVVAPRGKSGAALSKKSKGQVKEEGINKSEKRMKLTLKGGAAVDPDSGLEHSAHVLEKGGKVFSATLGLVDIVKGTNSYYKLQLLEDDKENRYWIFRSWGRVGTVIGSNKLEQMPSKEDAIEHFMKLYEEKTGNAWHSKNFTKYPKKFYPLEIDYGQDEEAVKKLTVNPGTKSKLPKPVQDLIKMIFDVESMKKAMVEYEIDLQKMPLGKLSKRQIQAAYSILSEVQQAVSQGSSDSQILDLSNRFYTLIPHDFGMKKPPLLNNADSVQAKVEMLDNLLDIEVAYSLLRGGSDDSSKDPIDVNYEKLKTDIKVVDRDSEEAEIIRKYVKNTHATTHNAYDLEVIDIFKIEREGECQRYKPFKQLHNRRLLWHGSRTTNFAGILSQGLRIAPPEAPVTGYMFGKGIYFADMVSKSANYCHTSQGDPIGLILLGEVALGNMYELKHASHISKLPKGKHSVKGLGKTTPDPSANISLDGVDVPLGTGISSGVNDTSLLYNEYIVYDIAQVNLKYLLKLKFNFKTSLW

Each structure is given as a SMILES string.

In experiment [1] the target is T1, Poly [ADP-ribose] polymerase 1 (Homo sapiens, UniProt P09874). The following applies: MDA-MB-468.
For experiment [2], the target named is T1, Poly [ADP-ribose] polymerase 1.
Experiment [3] has the same target. To be noted: A549.

Turning to `CNCc1ccc(-c2nc3cncc4c3n2CCNC4=O)cc1`, the PF50 is 0.6 in experiment [1], 1.5 in experiment [2] and 1.2 in experiment [3].

As to `O=C1NCCn2c(-c3ccc(N4CCNCC4)cc3)nc3cncc1c32`, the results for the PF50 in experiment [1], in experiment [2] and in experiment [3] were 1, 1.1 and 1.1, respectively.

Consider `CCNCc1ccc(-c2nc3cncc4c3n2CCNC4=O)cc1`, for which the results for the PF50 in experiment [1], in experiment [2] and in experiment [3] were 2, 2.1 and 3.2, respectively.

Turning to `CC(C)CN1CCC(c2nc3cncc4c3n2CCNC4=O)CC1`, the results for the PF50 in experiment [1], in experiment [2] and in experiment [3] were 2.6, 2.5 and 6.5, respectively.
